Measured affinities in a library of Ab-95 light chain variants

Binding partner: SARS-CoV-2 spike HR2 peptide, sequence PDVDLGDISGINAS.

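Phage display of a naive human antibody library on the peptide gave the parent. Library AAYL52 holds single substitutions and randomly drawn double and triple substitutions in the CDRs. The assay is AlphaSeq: two haploid yeast populations carry antibody and antigen on their surface. After mating in shaken culture at 30 °C for 16 h, diploids were selected and their barcode pairs sequenced. Read counts were normalised to the haploid input and turned into Kd by a linear fit to BCL2-family pairs of known affinity, for each replicate. The assay was run in three technical replicates.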

Parent scFv Ab-95: VH joined to VL by three GGGGS repeats. Changes lie in the light chain CDRs alone.
VH: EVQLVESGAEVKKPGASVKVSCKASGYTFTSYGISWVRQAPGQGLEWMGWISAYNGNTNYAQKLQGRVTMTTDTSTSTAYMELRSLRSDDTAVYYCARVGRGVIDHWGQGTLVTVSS
VL: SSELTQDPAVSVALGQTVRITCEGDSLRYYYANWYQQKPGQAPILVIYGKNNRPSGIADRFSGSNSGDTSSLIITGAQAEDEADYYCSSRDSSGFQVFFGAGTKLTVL

Positions count from residue 1 of the parent VL; Y31I puts I in place of Y.
Each Kd is an estimate from the mating assay, the geometric mean of the replicates in which the pair was seen; lower is stronger.
Where no diploid with the target was found in any replicate, the entry reads "not detected": below detection, most likely a poor binder, though not proof of it.

changes | Kd (apparent) | replicates with signal | control signals
Y31I/K50A/G94L | 14 µM | 2/3 | 2/9
Y29N/Y31N | 5.7 nM | 3/3 | 4/9
N33C/G94R | not detected | 0/3 | 0/9
Y31I/A32Y/G49H | not detected | 0/3 | 2/9
K50G/G94T | 21 µM | 1/3 | 1/9
S26V/K50I/D91H | 14 µM | 2/3 | 4/9
A32G/P54C/D91E | 1.2 µM | 1/3 | 2/9
E23V/G49Q/P54V | 28 µM | 3/3 | 2/9
E23D/A32G/R53A | 400 µM | 1/3 | 2/9
S26A/R28H/S55K | 150 nM | 3/3 | 2/9
S88Y/F95S/V97L | 8.5 µM | 1/3 | 2/9
E23L/S89H/Q96G | not detected | 0/3 | 0/9
G49R/S55I/Q96C | 51 µM | 2/3 | 2/9
A32G/N33A/S55M | 10 µM | 2/3 | 2/9
G49T/K50R/S55R | 28 µM | 1/3 | 4/9
N52L/S89H/D91P | 370 nM | 3/3 | 5/9
G24N/N33T/F95E | 100 µM | 1/3 | 3/9
L27K/S93P/F95K | 2.6 µM | 3/3 | 1/9
G24V/D25A/N51K | 1.6 µM | 3/3 | 3/9
N33W/G49H/G94P | 53 µM | 2/3 | 1/9
G24A/Y29L/N52I | 12 µM | 3/3 | 3/9
R28G/F95T/F98Y | 140 nM | 3/3 | 5/9
N51Y/R53C/S88V | 160 µM | 1/3 | 1/9
G24F/R53Q/F95Q | 2.6 µM | 2/3 | 2/9
G24N/K50P/G94Q | 140 µM | 2/3 | 4/9
D25H/S89Y/Q96K | not detected | 0/3 | 3/9
Y30E/G49Q | 150 nM | 3/3 | 6/9
G24P/L27G/S93K | 570 µM | 1/3 | 1/9
R53L/R90T/Q96T | not detected | 0/3 | 2/9
R28S/P54S/F95A | 530 nM | 3/3 | 1/9
Y31V/S55A/V97L | 1.9 µM | 3/3 | 4/9
Y31D/R53V/F95Y | 6.9 nM | 3/3 | 4/9
E23Y/S88M/V97T | 6.0 µM | 3/3 | 3/9
S26T/A32D/R53W | 2.3 µM | 1/3 | 1/9
S26F/S93A/G94D | 4.2 µM | 3/3 | 3/9
Y30W/A32I/F98A | 15 µM | 2/3 | 3/9
S26K/L27M/S89D | 18 µM | 3/3 | 2/9
Y29L/N51H/S89H | not detected | 0/3 | 2/9
D25L/N33Y/V97G | 7.3 µM | 3/3 | 5/9
G24K/S55D/F95I | not detected | 0/3 | 1/9
Y30F/A32K/S89D | 45 µM | 3/3 | 5/9
N52W/R53S/P54S | 1.5 µM | 2/3 | 1/9
G24Y/D91H/S92R | 16 µM | 1/3 | 1/9
R28S/G49W/P54R | 20 µM | 2/3 | 3/9
E23D/L27F/G94L | 1.4 µM | 2/3 | 2/9
R28S/N51K/S93A | 13 µM | 2/3 | 1/9
E23C/R28V/R90I | not detected | 0/3 | 1/9
R53T/R90N/S93Y | 2.2 µM | 2/3 | 0/9
S26R/P54K/S88F | 7.0 µM | 2/3 | 4/9
D91E/S92V/G94M | 3.0 µM | 3/3 | 6/9
Y31L/N51C/R53K | 37 µM | 3/3 | 1/9
Y29M/Y31M/G49I | 1.1 µM | 1/3 | 3/9
Y31T/S92D/Q96Y | 700 nM | 3/3 | 0/9
A32I/R53F/S89F | 31 µM | 1/3 | 1/9
N33I/S88M/F98E | not detected | 0/3 | 2/9
A32P/S88P/S89A | not detected | 0/3 | 1/9
K50C/N52W/S89D | not detected | 0/3 | 4/9
N33E/G94E/V97L | 18 µM | 2/3 | 2/9
R28W/N52S/Q96D | 1.0 µM | 3/3 | 2/9
A32N/P54K/S88K | 29 µM | 1/3 | 3/9

The last 7 entries again:

{"changes": "A32I/R53F/S89F", "Kd (apparent)": "31 µM", "replicates with signal": "1/3", "control signals": "1/9"}
{"changes": "N33I/S88M/F98E", "Kd (apparent)": "not detected", "replicates with signal": "0/3", "control signals": "2/9"}
{"changes": "A32P/S88P/S89A", "Kd (apparent)": "not detected", "replicates with signal": "0/3", "control signals": "1/9"}
{"changes": "K50C/N52W/S89D", "Kd (apparent)": "not detected", "replicates with signal": "0/3", "control signals": "4/9"}
{"changes": "N33E/G94E/V97L", "Kd (apparent)": "18 µM", "replicates with signal": "2/3", "control signals": "2/9"}
{"changes": "R28W/N52S/Q96D", "Kd (apparent)": "1.0 µM", "replicates with signal": "3/3", "control signals": "2/9"}
{"changes": "A32N/P54K/S88K", "Kd (apparent)": "29 µM", "replicates with signal": "1/3", "control signals": "3/9"}

As a blank, each scFv also met three strains without target: over library AAYL52, 28% of these pairings were detected, typically at 8.2 µM and seldom below 800 nM. Also given: how often the same scFv was detected with the empty control strains.
In this assay the parent's reference entry averaged 200 nM; its copy inside this library read 180 nM.

Data: MIT Lincoln Laboratory AlphaSeq set, Engelhart et al. 2022, doi:10.1038/s41597-022-01779-4, as distributed in FLAb.